Hits are enriched below; roughly 2.4% of the tested compounds scored in any of these assays.
Rango complex inh = prevents formation of the Rango-importin beta complex; 340,000 tested, 0.031% active; AID 540263; Potency, µM (top dose mostly 92.2 µM); Q14974; Rango CFP/YFP FRET sensor + importin beta, 45 min; further: nearly all actives have a fitted effect of over 15% in size
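FRET biosensor (snurportin 1 IBB flanked by EYFP and cerulean), 50 nM, with compound 5 min, then 0.125 microM importin beta in PBS, 1 mM DTT, 0.02% Tween-20, 0.1% BSA. CFP/YFP ratio read after 45 min at room temperature; pre-read flags interference.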
TDP1 inh = blocks human tyrosyl-DNA phosphodiesterase 1. recombinant TDP1, AlphaScreen DNA substrate cleavage. Potency, µM (series often up to 130 µM), actives largely listed as inhibitors. 350,000 tested, 0.28% active; active means well fitted curve in the direction sought with a large enough effect; inconclusive means small, poorly fitted or top-dose-only effect, or another doubt; inactive means no such curve, though single readings can be large; an effect the other way counts as inactive or inconclusive; further: nearly all actives have a fitted effect of over 40% in size
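Tdp1 1 nM final; 15 min RT w/ cpd; substrate 15 nM, 5 min; beads 10 ug/ml, 10 min; AlphaScreen read. Neg ctrl: no enzyme.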
Rango dissoc inh = inhibitors of RanGTP-induced Rango-importin beta complex dissociation. Potency, µM (series often up to 46.1 µM). 340,000 tested, 0.071% active. Biochemical FRET Rango-importin beta, RanGTP-induced dissociation. O95149+P62826; further: nearly all actives have a fitted effect of over 45% in size
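Quantitative HTS using a FRET biosensor: 0.1 uM Rango, 0.25 uM importin beta, 0.6 uM Ran, 2 mM GTP, 0.2 uM RCC1 final, PBS with DTT, Tween-20 and BSA. Post-read taken 45 min after Ran addition.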
ClpP mod = qHTS Assay for Activators of ClpP; purified B. subtilis ClpP, FRET peptide cleavage, 20 min; Potency, µM (titrated, usually from 57.5 µM); 340,000 tested, 1.9% active; active means well fitted falling curve with a large enough effect; inconclusive means small, poorly fitted or top-dose-only effect; inactive means no such curve, though single readings can be large or run the other way; further: the source files actives as falling curves though it sought activators and does not explain the sign; nearly all actives have a fitted effect of over 65% in size
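ClpP 10 microg/mL final, pH 8 Tris/KCl buffer with BSA, glycerol, Tween-20; compound pinned in; FRET-FV substrate; RT 20 min; Ex320/Em430; ΔFRET vs ADEP 5.8 microM, DMSO, no enzyme.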
TSG101-PTAP inh = blocks PTAP/TSG101 interaction to inhibit HIV-1 budding. Q99816. Fluorescence polarization, FITC-PTAP peptide / Tsg101 binding. Potency, µM (top dose mostly 115 µM), usual class: inhibitors. 340,000 tested, under 10 active. AID 493005; active means well fitted inhibition curve with a large enough effect in the main read-out, with a control signal flat, not every such curve was filed as active; inconclusive means small, poorly fitted or top-dose-only effect, or effect the other way, or a change in a side signal; inactive means no such curve, though single readings can be large or run the other way
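FP read-out: FITC-PTAP peptide, 50 nM final, binding Tsg101 binding domain, 10 uM final; 20 min, r.t.; 10 mM HEPES pH 7.5, 0.15 M NaCl, 0.01% Tween 20, 3 mM EDTA, 0.1 mM TCEP.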
12-LOX inh = blocks human arachidonate 12S-lipoxygenase. P18054. purified 12hLO, xylenol orange hydroperoxide absorbance. Potency, µM (doses to about 108 µM), most hits filed as inhibitors. 580,000 tested, 1.1% active; active means well fitted curve in the direction sought with a large enough effect; inconclusive means small, poorly fitted or top-dose-only effect, or another doubt; inactive means no such curve, though single readings can be large; an effect the other way counts as inactive or inconclusive
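Hydroperoxide product was detected by ferrous iron/xylenol orange as the 573 to 405 nm absorbance ratio. Arachidonic acid at 40 uM (final) was turned over for 30 min at room temperature by 150 nM human 12hLO, pH 7.0 Hepes buffer, after 15 min compound preincubation.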
Numbers stand for hits; 0 = inactive; ? = inconclusive; - = not tested or not shown; [ ] = dose if it differs, or a comment. Unless noted, the call rests on the fitted dose curve.

SMILES | Rango complex inh | TDP1 inh | Rango dissoc inh | ClpP mod | TSG101-PTAP inh | 12-LOX inh
O=c1cc(C(F)(F)F)[nH]c(=S)[nH]1 | - | - | - | - | - | 0.794µM
CC1=NC(=O)C(N=Nc2ccccc2)N1c1ccccc1 (stereo unspecified) | 0 | 0 | 0 | 0 | 0 | 0
CC1=NC(=O)C(N=Nc2cccc(C(=O)O)c2)N1c1ccccc1 (stereo unspecified) | 0 | 0 | 0 | 0 | 0 | 7.08µM
COc1cc(F)cc(-c2cccc(COc3cnc4c(ccn4CC(=O)O)c3)c2)c1 | - | - | - | - | - | 0
CC(=O)c1cc2c(cc1NC(=O)C1CC=CCC1C(=O)O)OCO2 (stereo unspecified) | 0 | 0 | 0 | 0 | 0 | 0
CC(=O)c1cc2c(cc1NC(=O)C1CN(C(C)=O)c3ccccc3O1)OCO2 (stereo unspecified) | 0 | 0 | 0 | 20µM | 0 | 0
COc1cc(N=Nc2cccc(S(N)(=O)=O)c2)c2ccccc2c1N | 0 | 0 | 0 | - | 0 | 6.31µM
NC1=NC(=Nc2cccc(S(N)(=O)=O)c2)c2ccccc21 | 0 | 0 | 0 | 0 | 0 | 0
C[C@]1(CO)C2CC[C@@H](O)[C@@H](CC(=O)N3CCC[C@H]3CO)[C@]2(C)CC[C@H]1OC(=O)Nc1cccc(C(F)(F)F)c1 (stereo partly specified) | - | - | - | - | - | 0
Cc1nn(-c2ccccc2)c2nc(C(F)F)cc(C(F)F)c12 | 0 | 56.2µM | 0 | 0 | 0 | 0
Cc1cc(C)c2c(C)nn(-c3ccccc3)c2n1 | 0 | 0 | 0 | ? | 0 | 0
O=C(N/N=C/C(Cl)=C/c1ccccc1)c1cccs1 | - | - | - | - | - | 0
Cc1ccccc1OCCSc1nc2ccc(NC(=O)c3cccs3)cc2s1 | - | 0 | - | 14.1µM | - | 0
Cc1cccc(OCCSc2nc3ccc(NC(=O)c4cccs4)cc3s2)c1 | - | 0 | - | 20µM | - | 0
Cc1ccccc1OCCSc1nc2ccc(NC(=O)c3cccc(F)c3)cc2s1 | - | 0 | - | 22.4µM | - | 0
COc1cc(C)ccc1OCCSc1nc2ccc(NC(=O)c3ccc4c(c3)OCO4)cc2s1 | - | 0 | - | 22.4µM | - | 0
Cc1cc(C)cc(C(=O)Nc2cccc(-c3nnc4n3CCCC4)c2)c1 | - | - | - | - | - | 0
CC(C)NC(=O)CCNC(=O)N1CCn2c1nc1ccccc12 | - | - | - | - | - | 0
O=C1CCSc2ccc(C(=O)NO)cc2N1 | - | - | - | - | - | 39.8µM
CC(NC(=O)c1ccc2c(c1)NC(=O)CCS2)c1ccncc1 (stereo unspecified) | - | - | - | - | - | 8.91µM
COc1ccc(CC(NC(=O)c2ccc3c(c2)NC(=O)CCS3)c2ccc(OC)cc2)cc1 (stereo unspecified) | - | - | - | - | - | 0
COc1cc(N)c(Cl)cc1C(=O)OCC(=O)Nc1cccnc1Cl | 0 | - | 0 | 28.2µM | 0 | 0
O=C(COC(=O)c1cccc(F)c1)Nc1cccnc1Cl | 0 | 0 | 0 | 25.1µM | 0 | 0
COc1ccc2[nH]c3c4c(ccc3c2c1)C(=O)C=CC4=O | ? | 0 | 4.61µM | 0 | 0 | ?
COc1ccc2[nH]c(-c3ccc(F)cc3F)cc(=O)c2c1 | - | 0 | - | - | - | -
SMILES | Rango complex inh | TDP1 inh | Rango dissoc inh | ClpP mod | TSG101-PTAP inh | 12-LOX inh
Oc1cc(Nc2cccnc2)cc2cccnc12 | 0 | 0 | 0 | - | 0 | 0
Oc1cc(Nc2ccncc2)cc2cccnc12 | 41.1µM | 0 | ? | - | 0 | 0
CS(=O)c1ccccc1O (stereo unspecified) | 0 | 0 | 0 | 0 | 0 | 0
O=S(c1ccccc1O)S(=O)c1ccccc1O (stereo unspecified) | 0 | - | 0 | - | 0 | 2.24µM
COc1ccc(-n2cc(-c3ccccc3)c3c(NC4CCCCC4)ncnc32)cc1 | - | 0 | - | ? | - | 0
CN(c1ncnc2c1c(-c1ccccc1)cn2-c1ccc(F)cc1)C1CCCCC1 | - | 0 | - | 28.2µM | - | 0
CCOc1ccc(-n2cc(-c3ccccc3)c3c(NC4CCCC4)ncnc32)cc1 | - | 0 | - | 11.2µM | - | 0
COc1ccc(-c2cc3ccccc3n2CC(O)CN2CCCCC2)cc1 (stereo unspecified) | 0 | - | 0 | 0 | 0 | ?
COc1ccc(-c2cc3ccccc3n2CC(O)CNCCO)cc1 (stereo unspecified) | ? | 0 | 0 | 11.2µM | 0 | ?
Cc1ccc(C)c(NC(=O)/C=C/c2cccs2)c1 | - | - | - | - | - | 0
COC(=O)CNC(=O)C1CCc2nnc(CNC(=O)NC(C)C)n21 (stereo unspecified) | - | - | - | - | - | 0[6.33 µM]
COc1ccc(C2=NS(=O)(=O)N(C)C(C(=O)N(C)C3CCCCC3)=C2)cc1 | - | - | - | - | - | 0
CCN1CCN(c2ccc3nnc(C(C)C)n3n2)CC1 | - | - | - | - | - | 0
S=C(NCCc1c[nH]c2ccccc12)Nc1ccc(Br)cc1 | - | - | - | - | - | 31.6µM
COc1ccc(CCNC(=S)NCCc2c[nH]c3ccccc23)cc1 | 0 | 0 | 0 | 0 | 0 | 44.7µM
CC(C)c1ccc(NC(=S)NCCc2c[nH]c3ccccc23)cc1 | 0 | 0 | 0 | 0 | 0 | 35.5µM
Cc1cccc(NC(=S)NCCc2c[nH]c3ccccc23)c1 | 0 | 0 | 0 | 0 | 0 | 39.8µM
COc1ccc(CNC(=O)NCCc2c[nH]c3ccccc23)cc1 | 0 | - | 0 | 0 | 0 | 0
Cc1ccc(NC(=S)NCCc2c[nH]c3ccccc23)cc1 | 0 | 0 | 0 | 0 | 0 | ?
